Results from PubChem BioAssay AID540267 (National Center for Advancing Translational Sciences (NCATS), 2011).
This is a selection; strong and weak results do not stand in their true shares. The source made the active and inactive calls. Cut-off read from the data, not from the text of the source: active = activity change below about -80%; inconclusive = between about -30% and that limit; inactive = weaker than that.

Experiment: Small Molecules that selectively kill Giardia lamblia: qHTS;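 note: parasites exposed to compound for two days anaerobically before the ATP read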
Conditions: Giardia lamblia trophozoite viability; at 7.66 µM; active compounds read low
Text: Giardia lamblia is a human pathogen afflicting impoverished nations, and the most common cause of outbreaks of diarrhea in the United States. Giardia has been classified by the CDC as a category B bioterrorism organism. The favored anti giardiasis drugs in the US are metronidazole or tinidazole, compounds that have undesirable side effects. Moreover, increasing resistance to drug regimes and recurrence are a concern. It is thus clear that alternative drug treatments are needed.
In a collaboration between the University of Maryland, College Park and the NIH Chemical Genomics Center, a bioluminescence Giardia viability assay based on the trophozoites' ATP content was developed. This assay is suitable for high throughput screening, and miniaturized the assay for compound screening in 1536-well plates. The goal of the project is to screen the Molecular Libraries Small Molecule Repository (MLSMR) for compounds that selectively kill Giardia trophozoites.
NIH Chemical Genomics Center [NCGC]
NIH Molecular Libraries Probe Centers Network [MLPCN]
Assay Submitter (PI): Osnat Herzberg, University of Maryland, College Park, MD.
1. Dispense 2 ul/well media
2. Dispense 23 nl/well compounds
3. Dispense 4 ul/well Giardia trophozoites at a concentration of 100 cells/well
4. […]
5. Dispense 4 ul/well ATPLite 1-Step Luminescence assay kit […]
7. Read luminescence signal on ViewLux plate reader
% is set by controls: 0 for no effect and ±100 for the full control effect.

Compound | activity change
CCC(=O)N(c1ccccc1)C1(COC)CCN(CCc2cccs2)CC1 | inactive: 4.86%
CCC(=O)N(c1ccccc1)C1(COC)CCN(CCn2nnn(CC)c2=O)CC1 | inactive: 32.2%
